Biological target: Glutamate NMDA receptor
Test: Tested for the binding affinity at glycine recognition site of the NMDA receptor in rat cortical membranes using radiolabeled [3H]- L-689 560
Type: cell membranes, Membrane

IC50: 13.8 µM
SMILES: O=C(O)c1cc(=O)c2ccccc2[nH]1 [TRANSTORINE]

Reference: ChEMBL document CHEMBL1127099, “Anticonvulsant activity of glycine-site NMDA antagonists. 2. trans 2-carboxy-4-substituted tetrahydroquinolines” (Bioorg Med Chem Lett, 1993)
